Experimental findings from ChEMBL document CHEMBL1137726, “Novel 4-aryl-pyrido[1,2-c]pyrimidines with dual SSRI and 5-HT1A activity, part 1” (Eur J Med Chem, 2009) are described below.

Experiment [1] deals with Mus musculus. Description: Induction of hypothermia in Albino Swiss mouse assessed as change in body temperature pretreated for 30 mins at 5 mg/kg, ip measured 30 mins after drug dose. It counts as functional, organism-based. On the set-up: dose 5 mg/kg.
Experiment [2] deals with Mus musculus. The experiment is described as follows: Induction of hypothermia in Albino Swiss mouse assessed as change in body temperature pretreated for 30 mins at 5 mg/kg, ip measured 90 mins after drug dose. The experiment is classed as functional, organism-based. On the set-up: dose 5 mg/kg.
Experiment [3] deals with Mus musculus. The experiment is described as follows: Induction of hypothermia in Albino Swiss mouse assessed as change in body temperature pretreated for 30 mins at 5 mg/kg, ip measured 120 mins after drug dose. The experiment is classed as functional, organism-based. On the set-up: dose 5 mg/kg.
The species entered for experiment [4] is Mus musculus. Conditions: Albino Swiss, 5 mg/kg.
The species entered for experiment [5] is Mus musculus. Conditions: Albino Swiss, 5 mg/kg. The source holds these as a separate data set.
The species entered for experiment [6] is Mus musculus. To be noted: Albino Swiss, 0.1 mg/kg.
Experiment [7] is filed under the species Mus musculus. Conditions: Albino Swiss, 0.1 mg/kg. This is another data set of the same source.
For experiment [8], the species on record is Mus musculus. Conditions: Albino Swiss, 0.1 mg/kg. This is another data set of the same source.
The species entered for experiment [9] is Mus musculus. Conditions: Albino Swiss, 0.1 mg/kg. This is another data set of the same source.

On to `Br.CCCN(CCC)C1CCc2cccc(O)c2C1` (centres undefined), for which the deltaT with Mus musculus [1] was -1.5 °C; with Mus musculus [2], -0.7 °C; in the experiment on Mus musculus [3], -0.2 °C; in the experiment listed under Mus musculus [4], -0.1 °C; in the experiment filed under Mus musculus [5], -0.2 °C.

For `COc1ccccc1N1CCN(CCN(C(=O)C2CCCCC2)c2ccccn2)CC1`, the deltaT in the experiment filed under Mus musculus [6] is 0.1 °C; in the experiment filed under Mus musculus [7], 0.2 °C; in the experiment filed under Mus musculus [8] it was 0.1 °C; in the experiment listed under Mus musculus [9], 0.2 °C.
